The values below come from patent EP4847514A1, “PYRIMIDINE POLYCYCLIC DERIVATIVE INHIBITOR, PREPARATION METHOD THEREFOR AND USE THEREOF” (dated 2026).

As usually defined, the Cmax is the highest concentration seen after dosing. The term Tmax denotes the time from dosing to the highest level. By IC50 is commonly meant the concentration needed to halve the response being measured.

A short description of data set [1]: Pharmacokinetic determination in mice (plasma, LCMS/MS). Conditions: Balb/c mice, male, PO 30 mg/kg. From the text:
• 1. Study objective: Balb/c mice were used as test animals to study the pharmacokinetic behaviour of the compounds in mice (plasma) after oral administration. • 2. Experimental protocol • 2.1 Test drugs: The example compounds of the present invention, made in house. • 2.2 Experimental animals: Balb/c mice, male, purchased from Shanghai Jiesijie Experimental Animal Co., Ltd., animal production license number (SCXK (Shanghai) 2013-0006 N0.311620400001794). • 2.3 Drug formulation: Formulation of drug for oral administration: 10% Captisol in 50 mM citrate buffer pH 5.0
(§1) Formulation of 50 mM citric acid: 4.8 g of citric acid was weighed into a 1000 ml glass bottle, ultrapure water was added to 300 ml, and the mixture was magnetically stirred until it was completely dissolved, additional ultrapure water was then added to 500 ml to formulate 50 mM citric acid.
(§2) Formulation of a solution containing 50 mM citric acid (10% Captisol, PH = 5): 50 g of Captisol powder was weighed and added to a 1000 ml glass bottle, 300 ml of 50 mM citric acid was added, and the mixture was magnetically stirred until it was completely dissolved, then additional citric acid was added to 500 ml, and the PH was adjusted to 5 using 10 M NaOH.
The example compounds were weighed and added to a 4-mL glass bottle separately, 2.4 mL of the solution was added and the mixture was ultrasonicated for 10 min to obtain a colourless clear solution with a concentration of 3 mg/mL.
Formulation of drug for intravenous administration: 5% DMSO + 10% Solutol HS15 + 85% PBS
(§3) The example compounds were weighed, and 5% DMSO was added based on the total administration volume; the mixture was vortexed and ultrasonicated for 2 min to ensure complete dissolution; then, 10% Solutol HS15 was added, and the mixture was vortexed and ultrasonicated for 2 min to ensure complete dissolution; finally, 85% PBS was added, and the mixture was vortexed and ultrasonicated for 5 min, and filtered through a 0.22 um filter membrane to obtain a colourless and transparent clear solution with a concentration of 0.2 mg/mL.
2.4 Administration: 3 Balb/c mice, male, were fasted overnight and then respectively administered PO at a dose of 30 mg/kg and a volume of 10 mL/kg. 3 Balb/C mice, male; were administered intravenously (IV) at a dose of 1 mg/kg with an administration volume of 5 mL/kg.
2.5 Sample collection: 0.04 mL of blood was collected from the orbit before administration and at 0.25 h, 0.5 h, 1 h, 2 h, 4 h, 6 h, 8 h, and 24 h after administration and placed in an EDTA-2K test tube, and the test tube was centrifuged at 6000 rpm for 6 min at 4°C to separate the plasma, which was stored at -20°C; The animals were fed 4 h after administration.
3 Determination results: The final determination results obtained by applying the LCMS/MS method are shown in the table below: Table 2: Pharmacokinetic parameters of the compounds administered orally in mice

Data set [2] concerns GP2D cells. The experiment in a line: Inhibition of proliferation of KRAS G12D mutant tumour cell line (CellTiter-Glo, about 72 h). Conditions: read-out: GP2D IC50. On the procedure:
(§4) 1. Experimental objective: The inhibition activity of the example compounds on the proliferation of 5 KRAS G12D mutant cell lines SNU-1, HPAF-II, Panc0403, AsPC-1 and GP2D was determined. 2. Experimental instruments: • 2.1 Instruments: Microplate reader (BioTek Synergy H1); Pipette (Eppendorf & Rainin). • 2.2 Reagents: HPAF-II, PANC0403, AsPC-1 and GP2D were purchased from COBIOER BIOSCIENCES CO., LTD; SNU-1 was purchased from the cell bank of Chinese Academy of Sciences, Cell Titer-Glo was purchased from Promega, with a catalogue number of G7573; RPMI 1640 was purchased from Gibco, with a catalogue number of 22400089; DMEM was purchased from Gibco, with a catalogue number of 11995065; FBS was purchased from Gibco, with a catalogue number of 10091148; PBS was purchased from Gibco, with a catalogue number of 10010023; trypsin was purchased from Gibco, with a catalogue number of 25200056; cell culture plates were purchased from Corning Company, with a catalogue number of 3610. 3. Experimental methods: When SNU-1, HPAF-II, Panc0403, AsPC-1 or GP2D cells were cultured to the appropriate confluence, the SNU-1, HPAF-II, Panc0403, AsPC-1 or GP2D cells were collected. The cells were adjusted to the appropriate cell density using complete culture medium, the cell suspension was plated onto a 96-well plate at 90 µL per well, and the plate was placed in the incubator at 37°C and 5% CO2 for adherent culture overnight. Solutions of the compound with different concentrations were formulated using DMSO and culture medium. A vehicle control was set up. The solutions of the compound were added to the 96-well plate at 10 µL per well, and the plate was placed in the incubator at 37°C and 5% CO2 for further culture for about 72 h. Then CellTiter-Glo solution was added, and the obtained mixture was shaken and mixed evenly, incubated in the dark for 10 min, and read with a BioTek Synergy H1 microplate reader. 4. Experimental data processing method: The inhibition rate was calculated using the luminescence signal values, and the concentrations along with the inhibition rates were subjected to non-linear regression curve fitting using Graphpad Prism software to obtain the IC50 values. 5. Experimental results: Table 1: Inhibition activity of the example compounds of the present invention on the proliferation of GP2D and AsPC-1 cells

The test system of data set [3] is AsPC-1 cells. The data set is described as above. Conditions: read-out: AsPC-1 IC50. As to the method: as §4
The nature of data set [4]: Pharmacokinetic determination in rats (plasma, LCMS/MS). Conditions: SD rats, male, PO 30 mg/kg.
Text: • 1. Study objective: SD rats were used as test animals to study the pharmacokinetic behaviour of the example compounds in rats (plasma) after oral administration. • 2. Experimental protocol • 2.1 Test drugs: The example compounds of the present disclosure, made in house. • 2.2 Experimental animals: 3 SD rats/group, male, from Shanghai Jiesijie Laboratory Animal Co., Ltd., animal production license number (SCXK (Shanghai) 2013-0006 N0.311620400001794). • 2.3 Drug formulation: Formulation of drug for oral administration: 10% Captisol in 50 mM citrate buffer pH 5.0
as §1, §2
The example compounds were weighed and dissolved in the solution and the mixture was shaken well and ultrasonicated for 15 min to obtain a colourless clear solution with a concentration of 3 mg/mL. Formulation of drug for intravenous administration: 5% DMSO + 10% Solutol HS15 + 85% PBS
as §3
2.4 Administration: 3 SD rats/group, male; were fasted overnight and then respectively administered PO at a dose of 30 mg/kg and a volume of 10 mL/kg. 3 SD rats/group, male; were administered intravenously (IV) at a dose of 1 mg/kg with an administration volume of 5 mL/kg.
2.5 Sample collection: 0.2 mL of blood was collected from the jugular vein before administration and at 0.25 h, 0.5 h, 1.0 h, 2.0 h, 4.0 h, 6.0 h, 8.0 h, and 24.0 h after administration and placed in an EDTA-2K test tube, and the test tube was centrifuged at 6000 rpm for 6 min at 4°C to separate the plasma, which was stored at -20°C. The animals were fed 4 h after administration. […]

Data set [5] relates to human pancreatic cancer cell line (HPAC). The experiment in a line: Anti-tumour efficacy in mouse transplanted tumour model of human pancreatic cancer cell line (HPAC). Conditions: BALB/c nude mice, 100 mpk PO BID; for Tumour volume (Mean ± SD) Day 0: Day 0 (baseline). The text has this:
1. Experimental objective: 8-10 week old female conventional immunodeficient mice (BALB/c nude) with a body weight of 18 g-22 g were used as experimental animals, and a transplanted tumour model of human pancreatic cancer cell line (HPAC) was used to conduct in vivo efficacy experiments to test the anti-tumour results of the example compounds after gavage administration. 2. Experimental instruments and reagents: • 2.1 Instruments: Ultra-clean workbench (BSC-1300II A2, Shanghai Boxun Industrial Co., Ltd. Medical Equipment Factory); CO2 incubator (Thermo-311, Thermo); centrifuge (Centrifuge 5720R, Eppendorf); automated cell counter (Countess II, Life Technologies); Pipette (10-20 µL, Eppendorf); Microscope (Ts 2, Nikon); vernier calliper (CD-6"AX, Mitutoyo, Japan); cell culture flask (T25/T75/T225, Corning); Thermostat water tank (HWS12, Shanghai Yiheng Science). • 2.2 Reagents: DMEM/F12 (11330-032, Gibco); foetal bovine serum (FBS) (10091-148, Gibco); Insulin (51500-056, Gibco); EGF (PHG0311, Gibco); 0.25% trypsin (25200-056, Gibco); phosphate buffer solution (PBS) (10010-023, Gibco); Matrigel (356234, Corning); Gln (25030-081, Gibco). 3. Experimental methods • 3.1 Experimental compounds: The example compounds of the present disclosure, made in house. • 3.2 Compound formulation: A given amount of the example compound was weighed, and an appropriate amount of 10% vehicle (Solutol HS15) was added. The mixture was stirred on a magnetic stirrer for 0.5 h to formulate a homogeneous suspension at the desired concentration. • 3.3 Cell culture and passaging: Human pancreatic cancer cell line (HPAC) was obtained from COBIOER BIOSCIENCES CO., LTD, cultured on DMEM/F12 medium (Gibco, 11330-032) supplemented with 10% foetal calf serum (Gibco, 10091-148), 1×Insulin (51500-056, Gibco) and 10 ng/ml of EGF (PHG0311, Gibco) and observed under a microscope (Thermo Fisher, 311). The cells were routinely passaged when the cells reached 80%-90% confluence in the culture flask. The passaged cells were cultured in a 37°C, 5% CO2 incubator (Thermo Fisher, 311). • 3.4 Cell seeding, grouping and administration: Under aseptic conditions, human pancreatic cancer cells (HPAC) in the logarithmic growth phase were harvested using 0.25% trypsin-EDTA (Gibco, 25200-056), washed and resuspended with phosphate buffer. The cell suspension was mixed with Matrigel (Coming, 356234) at a 1:1 ratio and implanted subcutaneously into the right anterior dorsal region of immunodeficient mice (BALB/c nude). Each mouse was inoculated with 3*10^6 cells in a volume of 100 microliters (µL). After inoculation, when the tumour volume reached 100-200 mm^3, the mice were evenly randomized into 5 groups based on the tumour size, with 5 mice per group, for in vivo efficacy experiments. The negative control group was the vehicle group. Mode of administration: The example compounds were administered orally. The dosage and administration period are as shown in the table. • 3.5 Tumour measurement and tumour inhibition rate calculation: Twice a week, the long and short diameters of the tumour were measured using a vernier calliper, and the tumour volume (mm^3) was calculated using the formula: V = 0.5*D*d*d, in which D and d are the long and short diameters of the tumour, respectively. The anti-tumour efficacy was determined by dividing the average increase in tumour volume of compound-treated animals by the average increase in tumour volume of untreated animals. The calculation formulas for tumour inhibition rate: when there is no tumour regression, TGI(%) = 100-[(Vt-V0) administration group/(Vt-V0) vehicle control group]*100%; and when tumour regression occurs, TGI(%)=[1-(Vt-V0) administration group/V0 vehicle control group]*100%. All animals were euthanized after the experiment. 4. Experimental results and conclusions Table 4: Efficacy parameters of the compounds in mice with transplanted tumours

In the case of `C#Cc1c(F)ccc2cc(O)cc(-c3nc4c5c(nc(OCC6(C[N+]7([O-])CCC(=C(F)F)CC7)CC6)nc5c3F)N3C[C@H]5CC[C@H](N5)[C@H]3[C@H](C)O4)c12` (some centres unmarked), in data set [1], the “AUC0-∞” value was determined as 1179 ng·h/mL, the maximum concentration (Cmax) came out at 236 ng/mL, the T1/2 came to 8.3 h and the time of peak concentration (Tmax) turned out to be 2.0 h. For the same molecule, the IC50 in data set [2] is 0.71 nM. For the same molecule, the IC50 in data set [3] was determined as 35 nM. Also, in data set [4], the “AUC0-∞” value was 3159 ng·h/mL, the peak concentration (Cmax) is recorded as 409 ng/mL, the T1/2 came to 6.5 h and the Tmax was found to be 4.0 h.

As for `[2H]C([2H])([2H])[C@@H]1Oc2nc(-c3cc(O)cc4ccc(F)c(C#C)c34)c(F)c3nc(OCC4(C[N+]5([O-])CCC(=C(F)F)CC5)CC4)nc(c23)N2C[C@H]3CC[C@H](N3)[C@@H]12` (some centres unmarked), the half-maximal inhibitory concentration (IC50) in data set [2] stood at 0.62 nM. The half-maximal inhibitory concentration (IC50) in data set [3] was 25 nM. Moreover, in data set [5], the “Tumour volume (Mean ± SD) Day 0” value is given as 208 mm^3 and the “Tumour volume (Mean ± SD) Day 21” value is reported as 308 mm^3.

As to `C#Cc1c(F)ccc2cc(O)cc(-c3nc4c5c(nc(OCC6(CN7CCC(=C(F)F)CC7)CC6)nc5c3F)N3C[C@H]5CC[C@@H]([C@H]3[C@H](C)O4)N5O)c12`, in data set [1], the “AUC0-∞” value is 1077 ng·h/mL, the peak concentration (Cmax) was 270 ng/mL, the T1/2 is 1.0 h and the time of peak concentration (Tmax) is 2.0 h.

Consider `C#Cc1c(F)ccc2cc(O)cc(-c3nc4c5c(nc(OCC6(CN7CCC(=CF)CC7)CC6)nc5c3F)N3C[C@H]5CC[C@H](N5)[C@H]3[C@H](C)O4)c12`, for which, in data set [5], the “Tumour volume (Mean ± SD) Day 0” value is reported as 209 mm^3 and the “Tumour volume (Mean ± SD) Day 21” value is 231 mm^3.

Turning to `[2H]C([2H])([2H])[C@@H]1Oc2nc(-c3cc(O)cc4ccc(F)c(C#C)c34)c(F)c3nc(OCC4(CN5CCC(=C(F)F)CC5)CC4)nc(c23)N2C[C@H]3CC[C@H](N3)[C@@H]12`, the 50% inhibitory concentration (IC50) in data set [2] was found to be 0.94 nM. Moreover, in data set [5], the “Tumour volume (Mean ± SD) Day 0” value was 209 mm^3 and the “Tumour volume (Mean ± SD) Day 21” value is 131 mm^3.
